Earlier results on one substance are cited in article PMC7385036, “An allosteric pocket for inhibition of bacterial Enzyme I identified by NMR-based fragment screening” (Journal of Structural Biology: X, 2020).

The series addresses EIC. The note with it: read-out: equilibrium dissociation constant for the EIC interaction; ref Venditti et al., 2013; cited from earlier work.

α-ketoglutarate: the Kd is ~2000 µM.
